Measured affinities in a library of Ab-95 light chain variants

Reference: Engelhart et al. 2022, doi:10.1038/s41597-022-01779-4. File: FLAb, binding data.

Target: peptide PDVDLGDISGINAS, taken from heptad repeat 2 (HR2) of SARS-CoV-2 spike.

Each scFv is VH, a (GGGGS)3 linker, VL, as in the parent Ab-95, and differs from it in the CDRs of the light chain only.
VH: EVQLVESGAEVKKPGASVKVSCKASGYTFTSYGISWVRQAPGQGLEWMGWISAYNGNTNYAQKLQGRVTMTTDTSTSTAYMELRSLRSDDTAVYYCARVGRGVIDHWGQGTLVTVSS
VL: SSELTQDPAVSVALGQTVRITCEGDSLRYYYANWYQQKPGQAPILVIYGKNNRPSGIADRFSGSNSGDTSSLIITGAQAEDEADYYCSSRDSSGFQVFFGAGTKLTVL

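Phage display of a naive human antibody library on the peptide gave the parent. AAYL52 was designed without a model: most single CDR substitutions and a random sample of double and triple ones. In AlphaSeq, yeast of one mating type display the scFv and yeast of the other type display the target. Binding brings cells together so that they mate, and sequencing counts the barcode pairs among the diploids. A regression on co-assayed BCL2-family reference pairs converts the normalised counts of each replicate to an apparent Kd. The assay was run in three technical replicates.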

Each variant is given by its three light chain CDRs, as the data file delimits them; those of the parent are EGDSLRYYYAN, GKNNRPS, SSRDSSGFQVF. Numbers give log10(Kd / nM), so 0 is 1 nM and 3 is 1 µM. Smaller is tighter. Averages over replicates are reported, and they cover detected replicates only. Where no diploid with the target was found in that replicate, the entry reads "n.d.": below detection, most likely a poor binder, though not proof of it.

CDR-L1 | CDR-L2 | CDR-L3 | log10 Kd, replicates | mean log10 Kd (nM)
EGDSLFYYYAN | GKINRPS | SSRDSSGFQVF | 4.38 n.d. 3.38 | 3.88
EADSLRYYEAN | GYNNRPS | SSRDSSGFQVF | 4.29 4.03 n.d. | 4.16
EGDSLRYYYAN | GKNNRPS | SSRASSVFQFF | 2.11 2.35 2.04 | 2.17
EGDSLRYYYAN | GPNNRPS | LSRDFSGFQVF | 3.13 2.92 2.67 | 2.91
EGDSLRYYYAN | GKNNRDS | SSMDGSGFQVF | 2.67 2.71 2.47 | 2.62
EGDSPRYYYFN | GKNNRPS | SSRDSSGFQCF | 4.91 n.d. 4.28 | 4.59
EGDSLVYYYAN | GKTNRPS | SSRDSSGFQRF | n.d. n.d. n.d. | n.d.
EGDSLRYYYAN | GKNARPS | SSRDSSQFQLF | 3.52 2.26 2.37 | 2.72
EGDSLRYWYAN | GKSNRPS | SSRDSSGFQFF | 3.93 n.d. 3.12 | 3.53
EGDPLRYGYAN | GKNNRPS | SSRDDSGFQVF | 1.09 1.34 0.56 | 1.00
EGDSLRYPYAN | GKNNRPS | SGRDSSGFQVC | 3.56 n.d. 3.99 | 3.78
EGDDLRYYCAH | GKNNRPS | SSRDSSGFQVF | n.d. 4.29 n.d. | 4.29
EDDSLRYYYAN | GKNVRLS | SSRDSSGFQVF | 4.91 4.76 n.d. | 4.83
EGDSFRYYYAN | GKNNRPS | SSRDISGFQYF | 2.97 2.70 3.91 | 3.19
KGLSLRYKYAN | GKNNRPS | SSRDSSGFQVF | 2.07 1.86 2.22 | 2.05
VGDSLRYYYAN | GKNNRPS | SSRDSSGFQVI | 2.68 2.36 2.43 | 2.49
EGDSLWIYYAN | GKNNRPS | SSRDHSGFQVF | n.d. n.d. n.d. | n.d.
KGDSLRYYYAN | WKNNRPS | SSRDSSTFQVF | 5.06 n.d. 4.04 | 4.55
EGDSLRYMYAN | GKNPRPS | SSRDSWGFQVF | 3.19 n.d. n.d. | 3.19
EGILLRYYYAN | GKNNEPS | SSRDSSGFQVF | n.d. 3.62 n.d. | 3.62
QGLSLRYYYMN | GKNNRPS | SSRDSSGFQVF | n.d. n.d. n.d. | n.d.
EGDSLRYYYAN | GKGNRPS | AWRDSSGFQVF | 1.86 1.77 1.07 | 1.57
EGNSLRYYYAN | GKNNRPS | SSRDFSMFQVF | n.d. n.d. n.d. | n.d.
EGDSLRYYYAN | GKNNRPS | SSADPSGFQVF | n.d. n.d. n.d. | n.d.
EGDSLRGYYAN | GKNNRPS | PSRDSSGFQVF | 1.83 1.59 0.99 | 1.47
EGDSLRYYYAN | GKMNRPS | SSRDEIGFQVF | n.d. n.d. n.d. | n.d.
FGDSHRYYYAN | GKNNRPV | SSRDSSGFQVF | 2.66 2.58 2.86 | 2.70
EGDSYRYYYAN | GKNERPS | SMRDSSGFQVF | 2.03 2.57 3.05 | 2.55
EGDSSRYYYAN | GKNNRPS | SSRDSSGMQNF | n.d. 3.90 n.d. | 3.90
EGDQLRYYYTN | GKNDRPS | SSRDSSGFQVF | 3.95 3.70 n.d. | 3.82
EGDILRYYYAN | HKNIRPS | SSRDSSGFQVF | 4.58 n.d. n.d. | 4.58
EFDSLRYYYAC | GKNNRPS | SSCDSSGFQVF | n.d. n.d. n.d. | n.d.
LGDSLRYYYAN | GKNNFPS | SSRDVSGFQVF | n.d. n.d. n.d. | n.d.
EGDSLRYYYAE | GWNNRPS | SSRDLSGFQVF | n.d. n.d. 3.60 | 3.60
EGDSSRMYYAN | GKNNRPS | SSRDSSGSQVF | 2.95 2.97 2.58 | 2.84
EGDSLRYYYAN | LKNNRPA | SSRDNSGFQVF | 5.53 n.d. n.d. | 5.53
FGDSLDYYYGN | GKNNRPS | SSRDSSGFQVF | n.d. n.d. 4.03 | 4.03
EGDSLRYIYAN | GKNKRPS | SSDDSSGFQVF | 3.48 4.47 3.62 | 3.86
EGDSLRYYYAN | GKNNNPS | SSRDKSGFQVI | 4.28 3.80 n.d. | 4.04
EGDSSRYYMAN | GKNNRPS | ESRDSSGFQVF | n.d. 5.38 n.d. | 5.38
EGDLLRYYYQN | GKNNRPS | SSRDSSGFQAF | 3.74 5.28 3.25 | 4.09
EGDSLRYYYAN | GKNNRPI | SSRENSGFQVF | 2.55 n.d. 4.13 | 3.34
EGDSLRYYYAN | GKQNRPS | SSNDSSGFQGF | 3.17 5.15 3.71 | 4.01
EGDSLRYYYAD | GKNNTPS | SSRDSAGFQVF | 4.64 5.84 n.d. | 5.24
EGDSLRYYYAD | GKNNSPS | HSRDSSGFQVF | n.d. 4.45 n.d. | 4.45
EGNSLRYYYAH | GKNNRPS | SSRDSSSFQVF | 3.32 4.84 4.26 | 4.14
EGLSDRYYYAN | GKNNRPS | SSRDHSGFQVF | 3.16 3.20 3.08 | 3.15
EGDSLRYYYAN | GKNNRPD | SSNDNSGFQVF | n.d. n.d. n.d. | n.d.
EGVSLRYYYFN | GKNNRPS | SSRDSSGFQVF | 3.21 n.d. n.d. | 3.21
EGDSLPYYMAN | GKNNRPS | SSRDSSGFGVF | 2.43 2.73 2.69 | 2.62
EGDSLSYYYAN | GKNNRLS | SSRDSSLFQVF | 3.20 4.60 2.54 | 3.45

Excerpt, the first 7 entries:

| CDR-L1 | CDR-L2 | CDR-L3 | log10 Kd, replicates | mean log10 Kd (nM) |
|---|---|---|---|---|
| EGDSLFYYYAN | GKINRPS | SSRDSSGFQVF | 4.38 n.d. 3.38 | 3.88 |
| EADSLRYYEAN | GYNNRPS | SSRDSSGFQVF | 4.29 4.03 n.d. | 4.16 |
| EGDSLRYYYAN | GKNNRPS | SSRASSVFQFF | 2.11 2.35 2.04 | 2.17 |
| EGDSLRYYYAN | GPNNRPS | LSRDFSGFQVF | 3.13 2.92 2.67 | 2.91 |
| EGDSLRYYYAN | GKNNRDS | SSMDGSGFQVF | 2.67 2.71 2.47 | 2.62 |
| EGDSPRYYYFN | GKNNRPS | SSRDSSGFQCF | 4.91 n.d. 4.28 | 4.59 |
| EGDSLVYYYAN | GKTNRPS | SSRDSSGFQRF | n.d. n.d. n.d. | n.d. |

For reference, the parent read 2.31 as the reference entry and 2.25 as a member of this library. Empty control strains, which show no peptide, gave a signal in 28% of pairings with library AAYL52; the median was 3.91 and 95% of these signals were weaker than 2.90. No background was subtracted.